Data taken from patent publication US20210405025A1, “IDENTIFYING COMPOUNDS FOR TREATING CANCER AND USE THEREOF” (THE UAB RESEARCH FOUNDATION, priority 2018, published 2021).

System: relapsed AML cells
Assay: Drug sensitivity assay, 1,536-well, 3-day culture with individual approved drugs at 10 μM, viability by alamarBlue

| Structure (SMILES) | #Cases >70% cell death |
| --- | --- |
| C[C@@H]1C[C@H]2[C@@H]3C[C@H](F)C4=CC(=O)C=C[C@]4(C)[C@@]3(F)[C@@H](O)C[C@]2(C)[C@@]1(O)C(=O)CO [FLUMETHASONE] | 2 |
| C[C@@H](O)[C@H]1C(=O)N2C(C(=O)OCOC(=O)C(C)(C)C)=C(SC3CN(C4=NCCS4)C3)[C@H](C)[C@H]12 [TEBIPENEM PIVOXIL] | 1 |
